Data taken from paper PMC8092268, “Quorum Sensing in Streptococcus mutans Regulates Production of Tryglysin, a Novel RaS-RiPP Antimicrobial Compound” (mBio, 2021).
No end group written: not given here.

Columns and labels:
S. mutans UA159 = experiment: CFU/ml assay (bacteriostatic or bactericidal); assay type: cell-based, Streptococcus mutans; conditions: 100 nM, CDM, one-way ANOVA with Sidak's posttest
Procedure: To perform CFU/milliliter assays, S. mutans was grown overnight, washed, and resuspended in CDM as outlined above in the “Luciferase assays with chromosomal reporters” section, with the exception that replicate tubes for harvest at each time point for both no-tryglysin and tryglysin-treated conditions were inoculated from bacterial cultures resuspended overnight. […] At this time point (0 h) and at 1, 2, 4, 6, 8 and 24 h after tryglysin addition, a set of no-tryglysin and tryglysin-treated tubes were harvested. At each time point, 100 μl from each tube in a set was harvested and diluted 1:10 successively in fresh THY. Dilutions from 10^−3 to 10^−6 (depending on the time point) were plated as follows: for each dilution, 10 μl was plated in triplicate on THY agar plates and allowed to drip vertically down the plate. This allowed for the spread of S. mutans colonies for later CFU/ml counting. After each dilution plating, plates were placed at 37°C and incubated for 48 h. […] After 2 days of incubation, colonies were counted for each time point, replicate, and condition, and the number of CFU/milliliter was calculated. Drip plates were considered to have accurate counts if colonies were between 10 and 150 colonies per drip. […] Statistical analysis was performed using a one-way ANOVA with Sidak’s multiple comparison posttest on Graph Pad Prism.

S. sanguinis ATCC 10556 = experiment: growth inhibition by tryglysins; assay type: cell-based, Streptococcus sanguinis; conditions: 100 nM, CDM, Fig. S5; 'to a lower degree' than for S. agalactiae
Procedure: (§1) For experiments to examine the effect of tryglysins, bacterial strains were grown from prestored glycerol stocks at −80°C and inoculated into THY broth. […] To monitor growth, OD600 was measured using a GENESYS 30 Vis spectrophotometer every hour.

S. agalactiae A909 = experiment: growth inhibition by tryglysins; assay type: cell-based, Streptococcus agalactiae; conditions: 100 nM, CDM, Fig. S5
Procedure: as §1

S. bovis JB1 = experiment: growth inhibition by tryglysins; assay type: cell-based, Streptococcus bovis; conditions: 100 nM, CDM, Fig. S5; 'to a lower degree' than for S. agalactiae
Procedure: as §1

Substance | CFU/milliliter vs untreated (S. mutans UA159; 6 h) | CFU/milliliter vs untreated (S. mutans UA159; 8 h) | inhibitory activity relative to variant B (S. sanguinis ATCC 10556) | inhibitory activity relative to variant B (S. agalactiae A909) | inhibitory activity relative to variant B (S. bovis JB1)
VNCWGKH (sidechain bridge or staple) [tryglysin B, 7-mer macrocyclic peptide VNCWGKH carrying the tetrahydro[5,6]benzindole modification, predicted product of the S. mutans wgk cluster] | statistically significant lower CFU/milliliter | statistically significant lower CFU/milliliter |  |  | 
VNSWGKH (also: sidechain bridge or staple (positions not given here)) [tryglysin A, macrocyclic 7-mer RiPP from S. ferus, VNSWGKH with tetrahydro[5,6]benzindole modification] | statistically significant lower CFU/milliliter | statistically significant lower CFU/milliliter | greater inhibitory activity | greater inhibitory activity | greater inhibitory activity
